From ChEMBL document CHEMBL1134117, “Synthesis of substituted 5[H]phenanthridin-6-ones as potent poly(ADP-ribose)polymerase-1 (PARP1) inhibitors” (Bioorg Med Chem Lett, 2001) come the findings set out here.

By UniProt entry, the sequences of proteins in these tests, tags left out.
UniProt P09874, whole entry: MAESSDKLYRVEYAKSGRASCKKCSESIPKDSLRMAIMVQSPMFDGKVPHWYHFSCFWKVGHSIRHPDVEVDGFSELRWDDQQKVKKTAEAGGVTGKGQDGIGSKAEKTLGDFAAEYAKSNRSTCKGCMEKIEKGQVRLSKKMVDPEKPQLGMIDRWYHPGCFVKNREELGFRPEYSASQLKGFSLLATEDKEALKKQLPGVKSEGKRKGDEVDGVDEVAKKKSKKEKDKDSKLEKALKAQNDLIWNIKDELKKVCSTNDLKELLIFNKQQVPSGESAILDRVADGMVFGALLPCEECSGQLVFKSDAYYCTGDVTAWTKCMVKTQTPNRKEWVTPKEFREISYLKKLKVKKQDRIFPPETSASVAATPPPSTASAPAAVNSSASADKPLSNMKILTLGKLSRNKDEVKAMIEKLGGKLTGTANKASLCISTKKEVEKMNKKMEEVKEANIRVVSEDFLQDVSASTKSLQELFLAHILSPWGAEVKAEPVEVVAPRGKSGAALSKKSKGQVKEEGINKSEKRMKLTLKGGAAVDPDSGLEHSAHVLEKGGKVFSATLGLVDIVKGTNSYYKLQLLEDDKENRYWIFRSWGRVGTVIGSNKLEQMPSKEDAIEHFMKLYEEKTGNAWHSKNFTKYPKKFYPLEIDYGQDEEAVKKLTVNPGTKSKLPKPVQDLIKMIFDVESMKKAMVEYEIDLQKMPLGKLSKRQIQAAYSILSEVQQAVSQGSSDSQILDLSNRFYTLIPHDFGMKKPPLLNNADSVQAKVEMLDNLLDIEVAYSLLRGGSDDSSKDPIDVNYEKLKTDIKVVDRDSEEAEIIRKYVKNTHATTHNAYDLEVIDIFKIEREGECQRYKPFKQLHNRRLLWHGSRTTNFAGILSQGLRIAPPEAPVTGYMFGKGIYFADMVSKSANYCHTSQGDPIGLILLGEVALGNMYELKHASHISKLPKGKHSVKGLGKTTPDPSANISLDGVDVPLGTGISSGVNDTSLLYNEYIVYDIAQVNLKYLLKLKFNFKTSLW

The test concerns the target Poly [ADP-ribose] polymerase 1 (Homo sapiens, UniProt P09874). Nature of the test: Inhibitory concentration against purified recombinant human Poly (ADP-ribose) polymerase 1.

Turning to `Oc1nc2cc(Cl)ccc2c2ccc(Cl)cc12`, the half-inhibitory concentration (IC50) came to 240 nM.

As usually defined, the IC50 is the concentration that gives 50% inhibition.
